Test system: MOLT-4 cells
Test: Cell viability assay, MOLT-4 (CellTiter-Glo, 72 h)
Settings: read-out: MOLT4 Cell viability IC50
Procedure: Human T-ALL cell MOLT-4 or SCLC NCI-H146 was cultured using standard cell culture conditions in RPMI-1640 supplemented with 10% FBS in humidified incubator at 37 °C, 5% CO2. To assess the effect of BCL-XL PROTAC degraders on cell viability, exponentially growing cells were seeded at a density of 10,000 cells/well in 96-well plates. After cell seeding, serially-diluted compound or DMSO was added to the cells (in concentration ranging from 0 to 10 uM, 3* dilution series), and plates were incubated for 72 hours. Cell viability was measured using a CellTiter-Glo Luminescent Cell Viability Assay kit (Promega) according to the manufacturer's protocol. The luminescence signal of treated cells was normalized to DMSO control. The dose response curves and IC50 values were generated using Prism.

Structure (SMILES): CCn1c(C)c(C(=O)N2CCOCC2)c(-c2cc(F)cc(N3CCN(c4ccc(NS(=O)(=O)c5ccc(N[C@H](CCN6CCN(CCCCCCC(=O)N[C@H](C(=O)N7C[C@H](O)C[C@H]7C(=O)N[C@@H](C)c7ccc(-c8scnc8C)cc7)C(C)(C)C)CC6)CSc6ccccc6)c(S(=O)(=O)C(F)(F)F)c5)cc4)CC3)c2)c1-c1ccc(F)cc1
- IC50: 20 nM

Structure (SMILES): CCn1c(C)c(C(=O)N2CC[C@@](C)(O)C2)c(-c2cc(F)cc(N3CCN(c4ccc(NS(=O)(=O)c5ccc(N[C@H](CCN6CCN(C(=O)CCCCCC(=O)N[C@H](C(=O)N7C[C@H](O)C[C@H]7C(=O)N[C@@H](C)c7ccc(-c8scnc8C)cc7)C(C)(C)C)CC6)CSc6ccccc6)c(S(=O)(=O)C(F)(F)F)c5)cc4)CC3)c2)c1-c1ccc(F)cc1
- IC50: 72 nM

Structure (SMILES): CCn1c(C)c(C(=O)N2CC[C@H](O)C2)c(-c2cc(F)cc(N3CCN(c4ccc(NS(=O)(=O)c5ccc(N[C@H](CCN6CCN(C(=O)CCCCCC(=O)N[C@H](C(=O)N7C[C@H](O)C[C@H]7C(=O)N[C@@H](C)c7ccc(-c8scnc8C)cc7)C(C)(C)C)CC6)CSc6ccccc6)c(S(=O)(=O)C(F)(F)F)c5)cc4)CC3)c2)c1-c1ccc(F)cc1
- IC50: 11 nM

Structure (SMILES): CCn1c(C)c(S(C)(=O)=O)c(-c2cc(F)cc(N3CCN(c4ccc(NS(=O)(=O)c5ccc(N[C@H](CCN6CCN(C(=O)CCCCCC(=O)N[C@H](C(=O)N7C[C@H](O)C[C@H]7C(=O)N[C@@H](C)c7ccc(-c8scnc8C)cc7)C(C)(C)C)CC6)CSc6ccccc6)c(S(=O)(=O)C(F)(F)F)c5)cn4)CC3)c2)c1-c1ccc(F)cc1
- IC50: 55 nM

Structure (SMILES): CCn1c(C)c(S(=O)(=O)N2CC[C@H](O)C2)c(-c2cc(F)cc(N3CCN(c4ccc(NS(=O)(=O)c5ccc(N[C@H](CCN6CCN(C(=O)CCCCCC(=O)N[C@H](C(=O)N7C[C@H](O)C[C@H]7C(=O)N[C@@H](C)c7ccc(-c8scnc8C)cc7)C(C)(C)C)CC6)CSc6ccccc6)c(S(=O)(=O)C(F)(F)F)c5)cc4)CC3)c2)c1-c1ccc(F)cc1
- IC50: 30 nM

Structure (SMILES): CCn1c(C)c(C(=O)N2CC[C@@H](O)C2)c(-c2cc(F)cc(N3CCN(c4ccc(NS(=O)(=O)c5ccc(N[C@H](CCN6CCN(C(=O)CCCCCC(=O)N[C@H](C(=O)N7C[C@H](O)C[C@H]7C(=O)N[C@@H](C)c7ccc(-c8scnc8C)cc7)C(C)(C)C)CC6)CSc6ccccc6)c(S(=O)(=O)C(F)(F)F)c5)cc4)CC3)c2)c1-c1ccc(F)cc1
- IC50: 14 nM

Structure (SMILES): CCn1c(C)c(S(C)(=O)=O)c(-c2cc(F)cc(N3CCN(c4ccc(NS(=O)(=O)c5ccc(N[C@H](CCN6CCN(CCCCCCC(=O)N[C@H](C(=O)N7C[C@H](O)C[C@H]7C(=O)N[C@@H](C)c7ccc(-c8scnc8C)cc7)C(C)(C)C)CC6)CSc6ccccc6)c(S(=O)(=O)C(F)(F)F)c5)cc4)CC3)c2)c1-c1ccccc1
- IC50: 8 nM

Structure (SMILES): Cc1ncsc1-c1ccc([C@H](C)NC(=O)[C@@H]2C[C@@H](O)CN2C(=O)[C@@H](NC(=O)CCN2CCC3(CC2)CCN(CC[C@H](CSc2ccccc2)Nc2ccc(S(=O)(=O)Nc4ccc(N5CCN(c6cc(F)cc(-c7c(S(C)(=O)=O)c(C)n(C(C)C)c7-c7ccc(F)cc7)c6)CC5)cc4)cc2S(=O)(=O)C(F)(F)F)CC3)C(C)(C)C)cc1
- IC50: 48 nM

Structure (SMILES): CCn1c(C)c(S(C)(=O)=O)c(-c2cc(F)cc(N3CCN(c4ccc(NS(=O)(=O)c5ccc(N[C@H](CCN(C)CCCN(C)C(=O)CCCCCC(=O)N[C@H](C(=O)N6C[C@H](O)C[C@H]6C(=O)N[C@@H](C)c6ccc(-c7scnc7C)cc6)C(C)(C)C)CSc6ccccc6)c(S(=O)(=O)C(F)(F)F)c5)cc4)CC3)c2)c1-c1ccc(F)cc1
- IC50: 16 nM

Source: patent publication US20260382731A1, “BCL-2/BCL-XL PROTEIN DEGRADER AND USE THEREOF” (published 2026)
